Experimental data published in US20090099157A1, “TETRAHYDRO-PYRAZOLO-PYRIDINE THIOETHER MODULATORS OF CATHEPSIN S” (priority 2007, published 2009).

By UniProt entry, the sequences of proteins in these tests, tags left out. Residues count along the entry.
UniProt P25774, 115-331: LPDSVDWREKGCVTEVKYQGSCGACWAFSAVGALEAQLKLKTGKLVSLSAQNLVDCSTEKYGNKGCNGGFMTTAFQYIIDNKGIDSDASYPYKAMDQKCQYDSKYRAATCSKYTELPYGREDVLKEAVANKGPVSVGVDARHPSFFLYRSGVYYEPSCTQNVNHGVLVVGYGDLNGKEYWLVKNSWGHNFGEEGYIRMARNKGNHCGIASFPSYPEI

What follows are compounds tested against Recombinant human cathepsin S (CatS) (Homo sapiens, UniProt P25774) (assay: biochemical).

SMILES	IC50
O=C1CCCN1C1CCN(CC(O)Cn2nc(-c3ccc(C(F)(F)F)c(SCCN4CCCCC4)c3)c3c2CCNC3)CC1 (stereo not shown) [Example 228, 1-{1-[2-Hydroxy-3-(3-{3-[(2-piperidin-1-ylethyl)sulfanyl]-4-(trifluoromethyl)phenyl}-4,5,6,7-tetrahydro-1H-pyrazolo[4,3-c]pyridin-1-yl)propyl]piperidin-4-yl}pyrrolidin-2-one]	1990 nM
CS(=O)(=O)N1CCc2c(c(-c3ccc(C(F)(F)F)c(SCCN4CCOCC4)c3)nn2CC(O)CN2CCC(c3n[nH]c(=O)[nH]3)CC2)C1 (stereo not shown) [Example 683, 5-(1-{2-Hydroxy-3-[5-(methylsulfonyl)-3-{3-[(2-morpholin-4-ylethyl)sulfanyl]-4-(trifluoromethyl)phenyl}-4,5,6,7-tetrahydro-1H-pyrazolo[4,3-c]pyridin-1-yl]propyl}piperidin-4-yl)-2,4-dihydro-3H-1,2,4-triazol-3-one]	270 nM
CS(=O)(=O)N1CCc2c(c(-c3ccc(C(F)(F)F)c(SCC(=O)NCCOc4ccccc4)c3)nn2CC(O)CN2CCC(N3CCCC3=O)CC2)C1 (stereo not shown) [Example 67, 2-[5-(1-{2-Hydroxy-3-[4-(2-oxo-pyrrolidin-1-yl)-piperidin-1-yl]-propyl}-5-methanesulfonyl-4,5,6,7-tetrahydro-1H-pyrazolo[4,3-c]pyridin-3-yl)-2-trifluoromethyl-phenylsulfanyl]-N-(2-phenoxy-ethyl)-acetamide]	5550 nM
COc1ccccc1C1CCN(CC(O)Cn2nc(-c3ccc(C(F)(F)F)c(SCCN4CCCC4)c3)c3c2CCN(S(C)(=O)=O)C3)CC1 (stereo not shown) [Example 703, 1-{4-[2-(Methyloxy)phenyl]piperidin-1-yl}-3-[5-(methylsulfonyl)-3-{3-[(2-pyrrolidin-1-ylethyl)sulfanyl]-4-(trifluoromethyl)phenyl}-4,5,6,7-tetrahydro-1H-pyrazolo[4,3-c]pyridin-1-yl]propan-2-ol]	30 nM
OC(CN1CCC(c2ccccn2)CC1)Cn1nc(-c2ccc(C(F)(F)F)c(SCCN3CCCCC3)c2)c2c1CCNC2 (stereo not shown) [Example 230, 1-(3-{3-[(2-Piperidin-1-ylethyl)sulfanyl]-4-(trifluoromethyl)phenyl}-4,5,6,7-tetrahydro-1H-pyrazolo[4,3-c]pyridin-1-yl)-3-(4-pyridin-2-ylpiperidin-1-yl)propan-2-ol]	180 nM
CC1CCN(CCSc2cc(-c3nn(C[C@@H](O)CN4CCCCC4)c4c3CN(S(C)(=O)=O)CC4)ccc2C(F)(F)F)CC1 [Example 377, (2S)-1-{3-[3-{[2-(4-Methylpiperidin-1-yl)ethyl]sulfanyl}-4-(trifluoromethyl)phenyl]-5-(methylsulfonyl)-4,5,6,7-tetrahydro-1H-pyrazolo[4,3-c]pyridin-1-yl}-3-piperidin-1-ylpropan-2-ol]	290 nM
NC1(C(=O)N2CCc3c(c(-c4ccc(C(F)(F)F)c(SCCN5CCC(F)CC5)c4)nn3CC(O)CN3CCCCC3)C2)CC1 (stereo not shown) [Example 428, 1-{5-[(1-Aminocyclopropyl)carbonyl]-3-[3-{[2-(4-fluoropiperidin-1-yl)ethyl]sulfanyl}-4-(trifluoromethyl)phenyl]-4,5,6,7-tetrahydro-1H-pyrazolo[4,3-c]pyridin-1-yl}-3-piperidin-1-ylpropan-2-ol]	1140 nM
O=C(NC1CCCCC1)N1CCc2c(c(-c3ccc(C(F)(F)F)c(SCCN4CCC(F)CC4)c3)nn2C[C@@H](O)CN2CCCCC2)C1 [Example 630, N-Cyclohexyl-3-[3-{[2-(4-fluoropiperidin-1-yl)ethyl]sulfanyl}-4-(trifluoromethyl)phenyl]-1-[(2S)-2-hydroxy-3-piperidin-1-ylpropyl]-1,4,6,7-tetrahydro-5H-pyrazolo[4,3-c]pyridine-5-carboxamide]	270 nM
CN(C(=O)CSc1cc(-c2nn(CCCN3CCC(N4CCCC4=O)CC3)c3c2CN(S(C)(=O)=O)CC3)ccc1C(F)(F)F)C1CCCCC1 [Example 101, N-Cyclohexyl-2-[5-(5-methanesulfonyl-1-{3-[4-(2-oxo-pyrrolidin-1-yl)-piperidin-1-yl]-propyl}-4,5,6,7-tetrahydro-1H-pyrazolo[4,3-c]pyridin-3-yl)-2-trifluoromethylphenylsulfanyl]-N-methyl-acetamide]	360 nM
CS(=O)(=O)N1CCc2c(c(-c3ccc(C(F)(F)F)c(SCCN4CCCC(C(F)(F)F)C4)c3)nn2CCCN2CCC(N3CCCC3=O)CC2)C1 (stereo not shown) [Example 38, 1-{1-[3-(5-Methanesulfonyl-3-{4-trifluoromethyl-3-[2-(3-trifluoromethyl-piperidin-1-yl)-ethylsulfanyl]-phenyl}-4,5,6,7-tetrahydro-pyrazolo[4,3-c]pyridin-1-yl)-propyl]-piperidin-4-yl}-pyrrolidin-2-one]	280 nM
CCCNCCSc1cc(-c2nn(CCCN3CCC(C(=O)N4CCCCC4)CC3)c3c2CN(S(C)(=O)=O)CC3)ccc1C(F)(F)F [Example 152, N-[2-({5-[5-(Methylsulfonyl)-1-{3-[4-(piperidin-1-ylcarbonyl)piperidin-1-yl]propyl}-4,5,6,7-tetrahydro-1H-pyrazolo[4,3-c]pyridin-3-yl]-2-(trifluoromethyl)phenyl}sulfanyl)ethyl]propan-1-amine]	200 nM
CS(=O)(=O)NC1CCN(CC(O)Cn2nc(-c3ccc(C(F)(F)F)c(SCCN4CCC(F)CC4)c3)c3c2CCN(S(C)(=O)=O)C3)CC1 (stereo not shown) [Example 794, N-[1-(3-{3-[3-{[2-(4-Fluoropiperidin-1-yl)ethyl]sulfanyl}-4-(trifluoromethyl)phenyl]-5-(methylsulfonyl)-4,5,6,7-tetrahydro-1H-pyrazolo[4,3-c]pyridin-1-yl}-2-hydroxypropyl)piperidin-4-yl]methanesulfonamide]	60 nM
O=C(CO)N1CCc2c(c(-c3ccc(C(F)(F)F)c(SCCN4CCC(F)CC4)c3)nn2CC(O)CN2CCC(c3ccccn3)CC2)C1 (stereo not shown) [Example 276, 1-{3-[3-{[2-(4-Fluoropiperidin-1-yl)ethyl]sulfanyl}-4-(trifluoromethyl)phenyl]-5-(hydroxyacetyl)-4,5,6,7-tetrahydro-1H-pyrazolo[4,3-c]pyridin-1-yl}-3-(4-pyridin-2-ylpiperidin-1-yl)propan-2-ol]	10 nM
COC(=O)C(=O)N1CCc2c(c(-c3ccc(C(F)(F)F)c(SCCN4CCC(F)CC4)c3)nn2C[C@@H](O)CN2CCCCC2)C1 [Example 436, Methyl {3-[3-{[2-(4-fluoropiperidin-1-yl)ethyl]sulfanyl}-4-(trifluoromethyl)phenyl]-1-[(2S)-2-hydroxy-3-piperidin-1-ylpropyl]-1,4,6,7-tetrahydro-5H-pyrazolo[4,3-c]pyridin-5-yl}(oxo)acetate]	75 nM
CC1CCN(CC(O)Cn2nc(-c3ccc(C(F)(F)F)c(SCCN4CCC(F)CC4)c3)c3c2CCN(S(C)(=O)=O)C3)CC1 (stereo not shown) [Example 473, 1-{3-[3-{[2-(4-Fluoropiperidin-1-yl)ethyl]sulfanyl}-4-(trifluoromethyl)phenyl]-5-(methylsulfonyl)-4,5,6,7-tetrahydro-1H-pyrazolo[4,3-c]pyridin-1-yl}-3-(4-methylpiperidin-1-yl)propan-2-ol]	150 nM
O=C(CSc1cc(-c2nn(CC(O)CN3CCC(N4CCCC4)CC3)c3c2CN(C(=O)CO)CC3)ccc1C(F)(F)F)N1CCOCC1 (stereo not shown) [Example 628, 1-[5-(Hydroxyacetyl)-3-{3-[(2-morpholin-4-yl-2-oxoethyl)sulfanyl]-4-(trifluoromethyl)phenyl}-4,5,6,7-tetrahydro-1H-pyrazolo[4,3-c]pyridin-1-yl]-3-(4-pyrrolidin-1-ylpiperidin-1-yl)propan-2-ol]	190 nM
CS(=O)(=O)N1CCc2c(c(-c3ccc(C(F)(F)F)c(SCCN4CCC(F)CC4)c3)nn2C[C@H](O)CN2CCN(c3ccccc3F)CC2)C1 [Example 807, (2R)-1-[4-(2-Fluorophenyl)piperazin-1-yl]-3-{3-[3-{[2-(4-fluoropiperidin-1-yl)ethyl]sulfanyl}-4-(trifluoromethyl)phenyl]-5-(methylsulfonyl)-4,5,6,7-tetrahydro-1H-pyrazolo[4,3-c]pyridin-1-yl}propan-2-ol]	40 nM
CS(=O)(=O)N1CCc2c(c(-c3ccc(C(F)(F)F)c(SCCN4CCOCC4)c3)nn2CC(O)CN2CCC(F)CC2)C1 (stereo not shown) [Example 177, 1-(4-Fluoropiperidin-1-yl)-3-[5-(methylsulfonyl)-3-{3-[(2-morpholin-4-ylethyl)sulfanyl]-4-(trifluoromethyl)phenyl}-4,5,6,7-tetrahydro-1H-pyrazolo[4,3-c]pyridin-1-yl]propan-2-ol]	550 nM
CS(=O)(=O)N1CCc2c(c(-c3ccc(C(F)(F)F)c(SCCN4CCC5CCCCC5C4)c3)nn2C[C@@H](O)CN2CCCCC2)C1 (stereo partly drawn) [Example 591, (2S)-1-{5-(Methylsulfonyl)-3-[3-{[2-(octahydroisoquinolin-2(1H)-yl)ethyl]sulfanyl}-4-(trifluoromethyl)phenyl]-4,5,6,7-tetrahydro-1H-pyrazolo[4,3-c]pyridin-1-yl}-3-piperidin-1-ylpropan-2-ol]	200 nM
CS(=O)(=O)N1CCc2c(c(-c3ccc(C(F)(F)F)c(SCCN4CCCCC4)c3)nn2CC(O)CN2CCC(c3nnnn3Cc3ccccc3)CC2)C1 (stereo not shown) [Example 879, 1-[5-(Methylsulfonyl)-3-{3-[(2-piperidin-1-ylethyl)sulfanyl]-4-(trifluoromethyl)phenyl}-4,5,6,7-tetrahydro-1H-pyrazolo[4,3-c]pyridin-1-yl]-3-{4-[1-(phenylmethyl)-1H-tetrazol-5-yl]piperidin-1-yl}propan-2-ol]	80 nM
CN(C)CCSc1cc(-c2nn(CCCN3CCC(N4CCCC4=O)CC3)c3c2CN(S(C)(=O)=O)CC3)ccc1C(F)(F)F [Example 33, 1-[1-(3-{3-[3-(2-Dimethylamino-ethylsulfanyl)-4-trifluoromethyl-phenyl]-5-methanesulfonyl-4,5,6,7-tetrahydro-pyrazolo[4,3-c]pyridin-1-yl}-propyl)-piperidin-4-yl]-pyrrolidin-2-one]	1280 nM
CC(C)(O)C1CCN(C[C@H](O)Cn2nc(-c3ccc(C(F)(F)F)c(SCCN4CCC5CCCCC5C4)c3)c3c2CCN(S(C)(=O)=O)C3)CC1 (stereo partly drawn) [Example 803, (2S)-1-[4-(1-Hydroxy-1-methylethyl)piperidin-1-yl]-3-{5-(methylsulfonyl)-3-[3-{[2-(octahydroisoquinolin-2(1H)-yl)ethyl]sulfanyl}-4-(trifluoromethyl)phenyl]-4,5,6,7-tetrahydro-1H-pyrazolo[4,3-c]pyridin-1-yl}propan-2-ol]	60 nM
